pIC50: −log10 of the molar value.
Target: Sodium channel protein type 5 subunit alpha (Homo sapiens, UniProt Q14524)
Experiment: Inhibition of Nav1.5 (unknown origin)

By UniProt entry, the sequences of proteins in these tests, tags left out.
UniProt Q14524, whole entry: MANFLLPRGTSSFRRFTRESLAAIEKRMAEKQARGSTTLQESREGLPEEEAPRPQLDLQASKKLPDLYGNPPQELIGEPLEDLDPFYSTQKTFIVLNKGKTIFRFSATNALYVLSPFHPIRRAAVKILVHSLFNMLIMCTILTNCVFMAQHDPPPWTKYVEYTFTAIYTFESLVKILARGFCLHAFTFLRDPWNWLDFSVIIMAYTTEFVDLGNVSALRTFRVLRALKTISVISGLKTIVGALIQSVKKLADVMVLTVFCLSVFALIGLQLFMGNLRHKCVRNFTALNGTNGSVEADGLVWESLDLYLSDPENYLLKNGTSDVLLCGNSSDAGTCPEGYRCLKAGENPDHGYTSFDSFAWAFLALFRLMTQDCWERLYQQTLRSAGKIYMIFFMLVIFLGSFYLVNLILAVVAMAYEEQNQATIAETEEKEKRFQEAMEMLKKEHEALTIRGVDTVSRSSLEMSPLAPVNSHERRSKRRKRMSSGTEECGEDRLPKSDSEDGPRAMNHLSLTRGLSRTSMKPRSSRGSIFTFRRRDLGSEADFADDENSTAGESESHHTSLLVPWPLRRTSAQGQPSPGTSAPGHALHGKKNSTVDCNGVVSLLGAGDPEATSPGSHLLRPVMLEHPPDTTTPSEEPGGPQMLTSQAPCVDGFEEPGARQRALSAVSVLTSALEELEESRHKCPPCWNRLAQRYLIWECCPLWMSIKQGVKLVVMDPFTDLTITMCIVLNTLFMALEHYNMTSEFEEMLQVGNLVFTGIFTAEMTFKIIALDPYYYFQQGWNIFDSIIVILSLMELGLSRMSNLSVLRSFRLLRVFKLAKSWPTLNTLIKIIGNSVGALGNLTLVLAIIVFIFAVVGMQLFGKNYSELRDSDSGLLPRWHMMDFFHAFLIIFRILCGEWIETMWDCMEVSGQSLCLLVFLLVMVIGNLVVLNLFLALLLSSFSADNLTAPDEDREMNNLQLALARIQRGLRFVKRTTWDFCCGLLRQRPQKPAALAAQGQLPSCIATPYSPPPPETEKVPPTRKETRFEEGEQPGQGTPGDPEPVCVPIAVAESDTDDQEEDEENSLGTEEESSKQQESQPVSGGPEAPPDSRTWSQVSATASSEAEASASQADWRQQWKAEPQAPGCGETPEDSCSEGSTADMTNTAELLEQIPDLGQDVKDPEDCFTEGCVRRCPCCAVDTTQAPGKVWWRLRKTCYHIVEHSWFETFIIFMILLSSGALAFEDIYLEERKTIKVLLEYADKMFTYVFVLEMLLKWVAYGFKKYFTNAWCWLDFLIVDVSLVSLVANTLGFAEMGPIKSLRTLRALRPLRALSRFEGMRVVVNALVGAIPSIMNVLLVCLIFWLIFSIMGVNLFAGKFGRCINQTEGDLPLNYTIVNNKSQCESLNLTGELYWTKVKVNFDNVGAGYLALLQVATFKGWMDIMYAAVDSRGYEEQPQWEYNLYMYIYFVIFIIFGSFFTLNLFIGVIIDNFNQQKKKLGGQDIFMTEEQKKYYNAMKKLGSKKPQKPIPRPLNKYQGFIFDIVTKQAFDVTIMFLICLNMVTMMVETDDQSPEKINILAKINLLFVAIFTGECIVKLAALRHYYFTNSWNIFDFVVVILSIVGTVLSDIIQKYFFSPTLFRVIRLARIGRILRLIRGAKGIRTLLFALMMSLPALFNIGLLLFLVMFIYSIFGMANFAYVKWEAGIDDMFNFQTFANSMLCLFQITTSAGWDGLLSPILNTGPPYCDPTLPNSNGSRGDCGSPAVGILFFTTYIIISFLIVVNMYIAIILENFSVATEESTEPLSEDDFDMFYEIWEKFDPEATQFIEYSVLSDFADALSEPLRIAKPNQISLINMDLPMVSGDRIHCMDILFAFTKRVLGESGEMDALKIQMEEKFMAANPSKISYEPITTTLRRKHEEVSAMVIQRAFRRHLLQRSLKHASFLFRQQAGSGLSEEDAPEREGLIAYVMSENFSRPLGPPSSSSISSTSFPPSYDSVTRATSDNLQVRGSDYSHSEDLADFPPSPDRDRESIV

O=S(=O)(Nc1ncns1)c1cc(F)c(OC[C@@H]2CNCC[C@H]2c2ccc(Cl)cc2)cc1F showed a pIC50 of under 5.00.

Reference: ChEMBL document CHEMBL3351765, “Recent progress in sodium channel modulators for pain” (Bioorg Med Chem Lett, 2014)
